Experimental data as given in PubChem BioAssay AID330 (DTP/NCI, 2004).
Toxic doses and inconclusive results are not listed. Rule for the calls: active = survival T/C of 150% or more; inactive = T/C below 125% in these data.

System: P388 leukemia ip, CD2F1 mice, survival T/C
Assay: NCI In Vivo Anticancer Drug Screen. Data for tumor model P388 Leukemia (intraperitoneal) in CD2F1 (CDF1) mice
Conditions: endpoint: median survival time, higher = longer survival

Measured: T/C

CN(Cc1cnc2nc(N)nc(N)c2n1)c1ccc(C(=O)N[C@@H](CCC(=O)O)C(=O)O)cc1
active: dose: 0.38 mg/kg/injection, schedule: Q01DX005 (ip), vehicle: sodium bicarbonate 151 % of control | dose: 1.2 mg/kg/injection, schedule: Q04DX003 (ip), vehicle: saline 172 % of control | dose: 1.5 mg/kg/injection, schedule: Q01DX005 (ip), vehicle: sodium bicarbonate 162 % of control | dose: 2.0 mg/kg/injection, schedule: Q04DX003 (ip), vehicle: sodium bicarbonate 162 % of control | dose: 4.5 mg/kg/injection, schedule: Q04DX003 (iv), vehicle: sodium bicarbonate 172 % of control
